We go through one molecule from patent publication US20260174910A1, “POROUS EXPANDING BIOCOMPATIBLE SCAFFOLDS” (DANMARKS TEKNISKE UNIVERSITET, priority 2022, published 2026).

The data set can be described thus: Lipids/surfactants in ECell: solubility and expansion in PBS (images). The data set is classed as physicochemical. Particulars: 1% w/w (RGD lipids 0.1%), with and without 2.5% CAB polymer. The method, then: Different surfactants were formulated in expandable (w CAB, Mn 12000) vs non-expandable (w GTH) ECell formulations in a concentration of 1% w/w. Base formulations used: LOIB:CAB:DMSO:Surfactant 66.5:2.5:30:1 (expandable) and LOIB:GTH:DMSO:Surfactant (69:10:20:1) (non-expandable), except formulations with RGD lipids where 0.1% surfactant and 0.9% extra DMSO was added. […] Gel formulations containing each surfactant were prepared in 600 mg aliquots. Only soluble formulations were injected as gel depots into PBS.
Duplicates consisting of 100 μL gel depots of each ECell formulation were injected into 2 mL PBS buffer. Samples were incubated at 37° C., and images of a non-expandable vs an expandable ECell containing the same surfactant side-by-side were taken at 1.5 h and 2 days and 7 days post injection to investigate and document surfactant effects on ECell expansion.

For the molecule `CCCCCCCC/C=C\CCCCCCCC(=O)O` [Oleic acid], the “appearance of ECell compositions containing the lipid/surfactant” value is “Homogeneous”.
